Sequences of proteins named here, by UniProt entry; tags and fusion partners are left off.
UniProt Q8TDV0, whole entry: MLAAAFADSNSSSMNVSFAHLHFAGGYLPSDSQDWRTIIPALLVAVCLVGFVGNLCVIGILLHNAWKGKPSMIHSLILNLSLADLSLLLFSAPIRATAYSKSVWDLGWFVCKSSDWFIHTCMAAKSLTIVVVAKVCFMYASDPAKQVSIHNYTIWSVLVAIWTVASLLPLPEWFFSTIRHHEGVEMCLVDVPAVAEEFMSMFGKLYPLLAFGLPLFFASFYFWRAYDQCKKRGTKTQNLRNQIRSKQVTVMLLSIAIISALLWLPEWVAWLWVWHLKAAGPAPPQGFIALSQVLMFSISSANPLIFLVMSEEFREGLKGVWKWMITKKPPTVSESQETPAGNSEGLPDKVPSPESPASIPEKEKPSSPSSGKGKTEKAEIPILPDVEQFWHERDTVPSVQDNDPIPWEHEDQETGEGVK

This is a selection; strong and weak results do not stand in their true shares. Some tests of the compounds listed are not included; inactive here does not mean inactive elsewhere. Activity calls are given as the source filed them. Rule as the data show it: active = activation above about 4.9%; inactive = the rest.
These compounds were tested against G-protein coupled receptor 151 (Homo sapiens) (UniProt Q8TDV0) (assay: activates the human receptor GPR151, primary screen, cell-based, PathHunter beta-arrestin, luminescence (AID 1508602;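 also: 0% = median of compound wells and 100% = cells with positive control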)). Conditions: PathHunter beta-arrestin GPR151 cells, at 11.2 µM, stronger effect = higher value.
In the case of `COc1cc(SC)ccc1C(=O)NCC1(N(C)C)CCCCC1`, the activation is reported as inactive: -0.387%. In the case of `CN1CCCC(COC(=O)C(O)(c2ccccc2)c2ccccc2)C1` (stereo not given), the activation is reported as inactive: 3.78%. In the case of `O=C(NCC1(N2CCOCC2)CCCCC1)c1cnc(Cl)c(Cl)c1`, the activation is reported as inactive: 1.17%. `CC(C)N(CCOC(=O)C(O)(c1ccccc1)c1ccccc1)C(C)C` was tested, and the activation was inactive: 0.279%. For `COc1ccc(C(=O)NCC2(N(C)C)CCCCC2)cc1`, the activation was inactive: -1.23%. For `CN(C)c1ccc(C(=O)NCC2(N(C)C)CCCCC2)cc1`, the activation was inactive: 0.198%. With `CN(C)C1CCCC1OC(=O)C(O)(c1ccccc1)c1ccccc1` (stereo not given) the activation was inactive: 1.62%. In the case of `CC(CCN(C)C)OC(=O)C(O)(c1ccccc1)c1ccccc1` (stereo not given), the activation is reported as inactive: -0.208%. `CN(C)C1(CNC(=O)c2n[nH]c3ccccc23)CCCCC1` was tested, and the activation was inactive: -0.0286%. In the case of `COc1cccc(C(=O)NCC2(N3CCCCC3)CCCCC2)c1`, the activation is reported as inactive: -1.33%. With `COc1ccc(Cl)cc1C(=O)NCC1(N(C)C)CCCCC1` the activation was inactive: -1.18%. `CN1C2CCC1CC(OC(=O)C(O)(c1ccccc1)c1ccccc1)C2` (stereo not given) was tested, and the activation was inactive: 0.882%. In the case of `CC(C)Oc1ccc(C(=O)NCC2(N(C)C)CCCCC2)cc1`, the activation is reported as inactive: -1.11%. For `CN(C)c1cccc(C(=O)NCC2(N(C)C)CCCCC2)c1`, the activation was inactive: -0.869%. For `CN(C)C1(CNC(=O)c2c(F)cccc2F)CCCCC1`, the activation was inactive: 0.0053%.
